1 compound from the Kinase Knowledgebase extract (Sharma et al. 2016) can be followed below.

Chains of the proteins cited; added tags and fusions are not shown.
UniProt P42336, whole entry, looked up: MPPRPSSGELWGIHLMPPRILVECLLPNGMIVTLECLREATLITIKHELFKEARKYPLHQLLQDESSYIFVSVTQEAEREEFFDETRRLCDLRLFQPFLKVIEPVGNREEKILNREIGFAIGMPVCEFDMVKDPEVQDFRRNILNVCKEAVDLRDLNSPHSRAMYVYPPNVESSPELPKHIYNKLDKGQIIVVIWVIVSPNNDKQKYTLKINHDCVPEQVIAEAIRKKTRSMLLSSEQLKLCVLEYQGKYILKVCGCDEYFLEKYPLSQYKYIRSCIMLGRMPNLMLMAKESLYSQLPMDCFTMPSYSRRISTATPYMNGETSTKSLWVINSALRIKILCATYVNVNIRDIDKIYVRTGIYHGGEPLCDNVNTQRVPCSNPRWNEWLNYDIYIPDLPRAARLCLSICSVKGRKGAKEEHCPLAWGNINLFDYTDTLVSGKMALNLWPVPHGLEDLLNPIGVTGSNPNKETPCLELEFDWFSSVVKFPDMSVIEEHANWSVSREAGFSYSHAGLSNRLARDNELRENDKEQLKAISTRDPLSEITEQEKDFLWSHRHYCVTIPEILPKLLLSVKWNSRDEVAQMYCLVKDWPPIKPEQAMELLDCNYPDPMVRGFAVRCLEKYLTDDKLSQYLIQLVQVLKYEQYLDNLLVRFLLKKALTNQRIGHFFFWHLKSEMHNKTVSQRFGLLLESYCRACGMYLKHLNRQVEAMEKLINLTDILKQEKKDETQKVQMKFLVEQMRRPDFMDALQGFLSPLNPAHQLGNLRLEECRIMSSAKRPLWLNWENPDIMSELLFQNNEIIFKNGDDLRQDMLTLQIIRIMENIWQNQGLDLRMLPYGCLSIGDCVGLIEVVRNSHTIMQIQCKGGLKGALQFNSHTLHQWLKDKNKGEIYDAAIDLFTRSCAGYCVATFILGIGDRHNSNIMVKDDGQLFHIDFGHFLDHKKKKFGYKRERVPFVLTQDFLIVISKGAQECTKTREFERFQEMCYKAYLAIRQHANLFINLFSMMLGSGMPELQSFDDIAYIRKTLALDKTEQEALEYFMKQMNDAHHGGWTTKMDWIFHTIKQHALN

The assay addresses PIK3CA (human) (UniProt P42336). As to the kind of experiment: Enzyme Assay.

Turning to `Nc1ncc(-c2nc(N3CCOCC3)c3c(n2)N2CCOCC2CO3)cn1` (stereo unspecified), the concentration for half-maximal inhibition (IC50) worked out at 5.72 nM.
